Data taken from patent EP0658565A1, “Oral products” (UNILEVER PLC, priority 1993, dated 1995).

Assay: physical data: solubility
Assay type: physicochemical

stannous glucose-6-phosphate [Sn G-6-P]
solubility in methanol (methanol): insoluble in methanol
solubility in water (water): freely soluble in water
